Publication PMC8406418, “Plant-Derived Cyclotides Modulate κ-Opioid Receptor Signaling” (Journal of Natural Products, 2021)
Some compounds may have been tested in ways that are not shown here.

Protein sequences, listed by entry. Tags and fused reporters are not part of them.
UniProt P33534, whole entry: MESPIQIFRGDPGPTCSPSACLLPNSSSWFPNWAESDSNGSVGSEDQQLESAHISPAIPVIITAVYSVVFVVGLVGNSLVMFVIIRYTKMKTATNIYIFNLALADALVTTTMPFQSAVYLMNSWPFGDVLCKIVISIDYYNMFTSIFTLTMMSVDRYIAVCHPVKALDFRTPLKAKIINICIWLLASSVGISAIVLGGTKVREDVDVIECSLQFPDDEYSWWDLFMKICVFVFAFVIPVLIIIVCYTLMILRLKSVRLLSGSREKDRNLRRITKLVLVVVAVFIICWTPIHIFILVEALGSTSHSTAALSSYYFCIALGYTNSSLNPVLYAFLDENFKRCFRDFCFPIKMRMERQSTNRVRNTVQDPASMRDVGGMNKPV

Biological target: mouse KOR (Mus musculus, UniProt P33534)
Test: Saturation binding of [3H]-DPN, HEK293 cell membrane preparations
Details: 1 h at 37 °C

[^3H]-Diprenorphine
Hill slope of the saturation binding curve: 1.00 ± 0.07 | maximum number of receptor binding sites (Bmax): 7166 ± 147 femtomoles of ligand bound per milligram of membrane | Kd (read-out: equilibrium dissociation constant (Kd)): 0.87 nM
